Here are results for one compound from ChEMBL document CHEMBL1135928, “Binding mode analysis of 3-(4-benzoyl-1-methyl-1H-2-pyrrolyl)-N-hydroxy-2-propenamide: a new synthetic histone deacetylase inhibitor inducing histone hyperacetylation, growth inhibition, and terminal cell differentiation” (J Med Chem, 2002).

Amino acid sequences for entries named in this document (tags omitted).
UniProt O09106, whole entry: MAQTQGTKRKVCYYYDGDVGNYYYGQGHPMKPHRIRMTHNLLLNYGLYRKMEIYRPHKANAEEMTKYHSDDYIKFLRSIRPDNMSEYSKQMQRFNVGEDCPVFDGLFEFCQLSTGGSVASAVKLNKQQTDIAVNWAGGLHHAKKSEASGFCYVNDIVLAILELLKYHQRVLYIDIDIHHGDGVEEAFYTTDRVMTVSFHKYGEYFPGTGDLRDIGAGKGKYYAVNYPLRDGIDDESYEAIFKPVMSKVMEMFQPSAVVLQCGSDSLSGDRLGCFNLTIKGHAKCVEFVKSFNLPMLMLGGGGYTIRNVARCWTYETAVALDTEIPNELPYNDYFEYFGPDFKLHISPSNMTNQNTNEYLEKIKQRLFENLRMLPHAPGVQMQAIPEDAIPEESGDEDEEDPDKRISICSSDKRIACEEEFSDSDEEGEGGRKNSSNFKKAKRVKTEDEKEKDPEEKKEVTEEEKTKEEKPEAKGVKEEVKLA

For the test, the target named is Histone deacetylase 1 (Mus musculus, UniProt O09106). Nature of the test: Binding affinity towards HDAC1 (Histone deacetylase 1) in mouse A20 cells, expressed as binding constant (pKi). It is filed as cell-based.

As for `CC(/C=C/C(=O)NO)=C\[C@@H](C)C(=O)c1ccc(N(C)C)cc1` [TRICHOSTATIN], the Ki was 1.07 nM.
